## AlphaSeq binding of Ab-14 heavy chain variants to a spike HR2 peptide

The target is the same throughout: PDVDLGDISGINAS, from the HR2 region of SARS-CoV-2 spike.

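Phage display of a naive human antibody library on the peptide gave the parent. This is the validation round: designs drawn from the data on random variants, tested in the same kind of assay. Their group label is 14H_GP_HC (GP: Gaussian process model; HC: hill climbing; a sequence that several methods proposed may carry one label only). The scFvs were displayed on barcoded MATa yeast, the peptide on MATalpha yeast. After mating in shaken culture at 30 °C for 16 h, diploids were selected and their barcode pairs sequenced. A regression on co-assayed BCL2-family reference pairs converts the normalised counts of each replicate to an apparent Kd. There are six technical replicates.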

The variants keep the light chain, the linker and the frameworks of Ab-14 (scFv order VH, three GGGGS repeats, VL).
VH: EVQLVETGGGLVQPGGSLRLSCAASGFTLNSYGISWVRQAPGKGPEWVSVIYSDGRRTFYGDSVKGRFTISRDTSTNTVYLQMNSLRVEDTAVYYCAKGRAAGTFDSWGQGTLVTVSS
VL: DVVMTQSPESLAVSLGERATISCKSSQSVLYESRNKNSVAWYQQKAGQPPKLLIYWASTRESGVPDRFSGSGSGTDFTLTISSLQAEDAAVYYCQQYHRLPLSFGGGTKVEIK

Each variant is given by its three heavy chain CDRs, as the data file delimits them; those of the parent are GFTLNSYGIS, VIYSDGRRTFYGDSVK, GRAAGTFDS. Affinities are written as log10 Kd with Kd in nM; a lower number is a better binder. Where no diploid with the target was found in that replicate, the entry reads "nd": below detection, most likely a poor binder, though not proof of it. Of ten entries with the parent sequence, four were seen in most replicates (averages 0.34 to 2.37), three in one and three in none, so single entries are noisy. The authors averaged sequences with at least three values out of six and counted those with two or fewer as poor binders. A sequence measured in both rounds can read differently, since the two assays cover different ranges. Nonspecific signal, from three strains lacking the peptide, appeared in 1% of pairings of all heavy chain designs, centred on 2.08 (5% of these signals below 0.84); values are not corrected for it. For each scFv, signals with the empty controls are counted beside the result, with their mean in brackets.

CDR-H1	CDR-H2	CDR-H3	log10 Kd (nM) by replicate	empty controls
GFTLNSYGIS	VIYSDGRRTFYSDSVK	GESAGTFDS	0.60 / 0.35 / nd / 1.06 / 1.18 / 0.83	0/18
GFVLNNYGIS	VIYSDGRRTFYDDSVK	GQLAGTFDS	0.42 / 0.97 / 1.28 / 1.42 / 1.78 / 1.54	0/18
GFTLNDYGIS	VIYSDGRRTMYGDSVK	GRCAGTFDS	0.94 / 0.81 / 0.83 / 0.75 / 1.36 / 1.39	0/18
GFTLKSYGIS	VIYSDGRRTFYKDSVK	GKLAGTFDS	nd / nd / nd / nd / nd / nd	0/18
GFTLNSYGIS	VIYSDGRRTFYDDNVK	GQNAGTFDS	0.34 / nd / 1.23 / 0.45 / nd / 1.27	0/18
GFTLNDYGIS	VIYSDGRRTFYQDAVK	GNAAGTFDS	1.51 / 1.32 / 1.71 / 1.33 / 1.37 / 1.64	0/18
GFTLNSYGIS	VIYADGRRTFYGDSVK	GRAADTNDS	nd / nd / nd / nd / nd / nd	0/18
GFTLNEYGIS	VIYSDGRRTFYGDNVK	GRAAGTFMT	nd / nd / nd / nd / nd / nd	1/18 (2.35)
GFSLNMYGIS	VIYSDGRRTQYGDSVK	GRAAGTFDS	1.39 / 1.33 / 1.72 / 0.88 / 1.49 / 1.65	0/18
GFRLNSYGIS	VIYSDGRRTFYADSVK	GQLAGTFDS	nd / nd / nd / nd / nd / nd	0/18
GFNLNEYGIS	VIYSDGRRTFYGDSVK	GRAAGTFIS	nd / nd / nd / nd / nd / nd	0/18
GFTLNDYGIS	VIYSDGRRTFYSDSVK	GRSAGTFDS	0.60 / 0.15 / 0.20 / 0.06 / 0.62 / 0.36	0/18
GFELNDYGIS	VIYSDGRRTFYDDSVK	GRAAGTFDS	nd / 1.74 / 0.80 / 0.58 / 3.14 / 1.70	0/18
GFDLNSYGIS	VIYSDGRRTFYGDSVK	GRAAWTFES	nd / nd / nd / nd / nd / nd	0/18
GFTLDSYGIS	VIYSDGRRTFYADSVK	GRQAGTFDS	0.36 / 0.11 / 0.67 / 0.30 / 0.99 / 0.74	0/18
GFTLNSYGIS	VIYSDGKRTFYSDSVK	GVAAGTFDS	0.60 / 0.63 / 0.09 / 0.40 / 0.92 / 0.80	0/18
GFSLNEYGIS	VIYADGRRTFYGDSVK	GRAAGTFIS	nd / 1.08 / 0.48 / 1.05 / 1.36 / 1.55	0/18
GFWLNEYGIS	VIYSDGRRTFYHDSVK	GRAAGTFDA	1.24 / 0.27 / 0.40 / 0.61 / 0.66 / 1.57	0/18
GFNLNSYGIS	VIYADGRRTFYGDSVK	GRAAGTFTS	0.27 / 0.88 / 0.67 / 1.27 / 0.96 / 0.50	0/18
GFTLNSYGIS	VIYSDGRRTFYSDSVK	GMSAGTFDS	0.66 / 0.94 / 0.55 / 1.13 / 0.85 / 0.90	0/18
LFTLNEYGIS	VIYSDGRRTFYGDSVK	GRTAGTFDS	nd / nd / 0.57 / nd / nd / nd	0/18
GFELNSYGIS	VIYSDGRRTFYDDSVK	GMLAGTFDS	0.49 / 0.58 / 0.34 / 0.17 / 0.26 / 0.06	0/18
GFSLNEYGIS	VIYSDGRRTFYVDSVK	GPAAGTFDR	nd / nd / nd / nd / 0.66 / nd	0/18
GFTLNSYGIS	VIYSDGRRTFYSDSVK	GLAGGTFDV	nd / 0.54 / nd / 0.11 / nd / 0.58	0/18
GFTLEMYGIS	VIYSDGRRTFYGDSVK	GRAAGTFTS	nd / nd / nd / nd / nd / nd	0/18
GFTLNEYGIS	VIYSDGRRTFYGDRVK	GRAAVTFDT	nd / nd / nd / nd / nd / nd	0/18
GFSLNEYGIS	VIYSDGRRTFYHDSVK	GRYAGTFDS	0.97 / 0.79 / 0.32 / 0.34 / 0.56 / 0.86	0/18
GFCLNSYGIS	VIYSDGRRTFYSDSVK	GRTAGTFDS	1.38 / 1.71 / 2.39 / nd / 1.93 / 2.14	1/18 (1.85)
GFTLNEYGIS	VIYSDGRRTFYGDAVK	GRAAVTFDK	0.71 / nd / 1.97 / 1.67 / 1.09 / 0.73	1/18 (3.28)
KFTLNEYGIS	VIYSDGRRTFYGDSVK	GRAAVTFDT	nd / nd / nd / nd / nd / nd	0/18
GFTLNEYGIS	VIYSDGRRTFYKDSVK	GREAGTFDV	1.00 / 0.26 / 1.53 / 1.27 / 2.54 / nd	0/18
GFILNSYGIS	VIYSDGRRTFYVDSVK	GQLAGTFDS	1.50 / nd / nd / nd / nd / 1.87	0/18
GFTLNNYGIS	VIYSDGRRTFYDDSVK	GQEAGTFDS	nd / 0.97 / 0.84 / 1.07 / nd / 1.30	0/18
GFTLNSYGIS	VIYSDGRRTFYQDRVK	GEAAGTFDS	nd / nd / nd / nd / nd / nd	0/18
EFTLNSYGIS	VIYSDGRRTFYSDSVK	GEAGGTFDV	-0.26 / 1.07 / nd / 0.44 / 0.74 / 0.13	0/18
GFTLNEYGIS	VIYSDGRRTFYGDSVK	GCIAGTFDN	0.94 / 0.55 / nd / 0.33 / 0.82 / 0.16	0/18
GFSLNEYGIS	VIYSDGRRTFYGDAVK	GRAAGTFDI	1.02 / 0.39 / 0.63 / 0.81 / 0.77 / 1.10	0/18
GFTLNDYGIS	VIYSDGRRTFYGDSVK	GRNAGTFES	nd / nd / nd / nd / nd / nd	0/18
GFVLNDYGIS	VIYSDGRRTQYIDSVK	GRAAGTFDS	nd / nd / nd / nd / nd / nd	0/18
GFTLNEYGIS	VIYSDGRRTFYSDSVK	GRAAGTFSS	1.24 / 1.74 / 0.51 / 0.85 / 1.08 / 1.27	1/18 (1.92)
SFTLESYGIS	VIYADGRRTFYGDSVK	GRAAGTFKS	nd / nd / nd / nd / nd / nd	0/18
GFTLKSYGIS	VIYSDGRRTFYDDSVK	GKLAGTFDS	nd / nd / nd / nd / nd / nd	0/18
GFDLNSYGIS	VIYSDGRRTFYGDSVK	GRTAGSFMS	nd / nd / nd / nd / nd / nd	0/18
GFDLNSYGIS	VIYSDGRRTFYGDSVK	GRGAGAFNS	nd / nd / nd / nd / nd / nd	0/18
GFTLNEYGIS	VIYSDGRRTFYTDSVK	GRLAGTFIS	nd / nd / nd / nd / nd / nd	0/18
GFTLNDYGIS	VIYSDGIRTFYGDSVK	GRQAGTFIS	nd / nd / nd / nd / nd / nd	0/18
GFTLNEYGIS	VIYSDGRRTFYGDSVK	GRIAGTFDQ	1.77 / 0.75 / 0.44 / 0.04 / 0.75 / -0.09	1/18 (2.37)
GFPLNDYGIS	VIYSDGRRTYYGDSVK	GRAAGTFDS	nd / nd / nd / nd / nd / nd	0/18
GFHLNSYGIS	VIYSDGRRTFYIDSVK	GRIAGTFDS	nd / nd / nd / nd / nd / nd	0/18
GFQLNDYGIS	VIYSDGRRTFYGDSVK	GRSAGTFIS	nd / nd / nd / nd / nd / nd	1/18 (3.19)

From the list, the first 8 with no signal in any replicate:

{"CDR-H1": "GFTLKSYGIS", "CDR-H2": "VIYSDGRRTFYKDSVK", "CDR-H3": "GKLAGTFDS", "log10 Kd (nM) by replicate": "nd / nd / nd / nd / nd / nd", "empty controls": "0/18"}
{"CDR-H1": "GFTLNSYGIS", "CDR-H2": "VIYADGRRTFYGDSVK", "CDR-H3": "GRAADTNDS", "log10 Kd (nM) by replicate": "nd / nd / nd / nd / nd / nd", "empty controls": "0/18"}
{"CDR-H1": "GFTLNEYGIS", "CDR-H2": "VIYSDGRRTFYGDNVK", "CDR-H3": "GRAAGTFMT", "log10 Kd (nM) by replicate": "nd / nd / nd / nd / nd / nd", "empty controls": "1/18 (2.35)"}
{"CDR-H1": "GFRLNSYGIS", "CDR-H2": "VIYSDGRRTFYADSVK", "CDR-H3": "GQLAGTFDS", "log10 Kd (nM) by replicate": "nd / nd / nd / nd / nd / nd", "empty controls": "0/18"}
{"CDR-H1": "GFNLNEYGIS", "CDR-H2": "VIYSDGRRTFYGDSVK", "CDR-H3": "GRAAGTFIS", "log10 Kd (nM) by replicate": "nd / nd / nd / nd / nd / nd", "empty controls": "0/18"}
{"CDR-H1": "GFDLNSYGIS", "CDR-H2": "VIYSDGRRTFYGDSVK", "CDR-H3": "GRAAWTFES", "log10 Kd (nM) by replicate": "nd / nd / nd / nd / nd / nd", "empty controls": "0/18"}
{"CDR-H1": "GFTLEMYGIS", "CDR-H2": "VIYSDGRRTFYGDSVK", "CDR-H3": "GRAAGTFTS", "log10 Kd (nM) by replicate": "nd / nd / nd / nd / nd / nd", "empty controls": "0/18"}
{"CDR-H1": "GFTLNEYGIS", "CDR-H2": "VIYSDGRRTFYGDRVK", "CDR-H3": "GRAAVTFDT", "log10 Kd (nM) by replicate": "nd / nd / nd / nd / nd / nd", "empty controls": "0/18"}

The measurements come from Li et al. 2023 (doi:10.1038/s41467-023-39022-2) through the FLAb antibody collection.